We go through two compounds from US5180716A, “Cyclodextrin complexes for neuraxial administration of drugs” (The Regents of the University of California, priority 1990, dated 1993).

Data set [1] in a line: alfentanil redistribution (plasma, epidural space) after epidural injection, dogs. The following applies: dog.
Data set [2] is described as follows: pharmacokinetic parameters in lumbar CSF after epidural administration, dogs.
The nature of data set [3]: ex vivo meningeal diffusion / meningeal flux (two-well diffusion cell). The note with it: for reduction in meningeal flux: monkey meninges ex vivo; for degree of reduction in meningeal flux (ordering): after complexation with CDEX.
For data set [4] the following is noted: following spinal administration; cited from earlier work.
Data set [5] in a line: plasma concentration following intrathecal injection in the rat. The following applies: 45 min after intrathecal injection, mean of 4-5 rats.
The mark [6] stands for this setting: alfentanil 400 μg epidural with 2% CDEX, relative to 20% CDEX.
The mark [7] stands for this setting: alfentanil 400 μg epidural with 20% CDEX.
Setting [8] is: alfentanil 400 μg epidural with CDEX.
The mark [9] stands for this setting: alfentanil 400 μg epidural in saline, N = 5.
Setting [10] is: alfentanil 400 μg epidural, 2% CDEX, N = 1.
Setting [11] is: alfentanil 400 μg epidural, 20% CDEX, N = 1.
[12] abbreviates: parentheses: same animal as 2% CDEX, without CDEX.
Setting [13] is: parentheses: same animal as 20% CDEX, without CDEX.

Each structure is given as a SMILES string. This is a selection: effects in other tests are not listed, and their absence says nothing.

Turning to `CCC(=O)N(c1ccccc1)C1(COC)CCN(CCn2nnn(CC)c2=O)CC1`, the plasma drug concentration entry in data set [1] (alfentanil 400 μg epidural in saline) is on record as “rapid increase to peak plasma drug concentrations”. In addition, in data set [1] (setting [6]), the “peak plasma concentrations (reduction)” value is reported as “to a lesser extent” and the “total body clearance (reduction)” value is recorded as “to a lesser extent”. Besides, in data set [1] (setting [7]), the peak plasma concentrations result was “markedly reduced” and the total body clearance result is “markedly reduced”. Besides, in data set [1] (setting [8]), the “apparent volume of epidural space (Va)” value is given as “increased” and the “rate of redistribution from the epidural space to the systemic circulation” value is listed as “retarded”. Further, in data set [2] (setting [9]), the “T1/2abs (halftime of absorption)” value is reported as 1.57 min, the T1/2α (redistribution) worked out at 7.9 min, the T1/2 β (elimination half life) was 117 min and the “T max (time to C max)” value is listed as 4.66 min. Besides, in data set [2] (setting [10]), the “T1/2abs (halftime of absorption)” value is 7.2 min, the T1/2α (redistribution) was 7.4 min, the T1/2 β (elimination half life) was 432 min and the “T max (time to C max)” value was found to be 10.7 min. For the same compound, in data set [2] (setting [11]), the “T1/2abs (halftime of absorption)” value was found to be 30.7 min, the T1/2α (redistribution) came to 32.3 min and the T1/2 β (elimination half life) amounted to 2180 min. Moreover, in data set [2] (setting [12]), the “T1/2abs (halftime of absorption)” value came to 3.4 min, the T1/2α (redistribution) came out at 5.8 min and the T1/2 β (elimination half life) worked out at 31.4 min. Moreover, in data set [2] (setting [13]), the “T1/2abs (halftime of absorption)” value is reported as 2.2 min, the T1/2α (redistribution) came out at 7.1 min and the T1/2 β (elimination half life) was found to be 152 min. In data set [3] (2% CDEX vs CSF), the “reduction in meningeal flux” value amounted to 20 fold. Moreover, the “reduction in meningeal flux” value in data set [3] (20% CDEX vs CSF, listed as alfentanil, HCl) is on record as 100 fold. Moreover, the “degree of reduction in meningeal flux (ordering)” value in data set [3] is reported as “alfentanil>>sufentanil”. Moreover, the “blood concentrations early on” value in data set [4] was “prominent blood concentrations”. For the same compound, the Plasma concentration in data set [5] worked out at 10.4 ng/mL.
For the compound `CCC(=O)N(c1ccccc1)C1(COC)CCN(CCc2cccs2)CC1`, in data set [3] (20% CDEX vs CSF), the “reduction in meningeal flux” value is listed as 10 fold. The “degree of reduction in meningeal flux (ordering)” value in data set [3] is given as “alfentanil>>sufentanil”. The “blood concentrations early on” value in data set [4] was “prominent blood concentrations”.
